This is an account of results in US20080118553A1, “Tannate salt form of polypeptide mixtures, their preparation and use” (priority 2006, published 2008).

Data set [1] in a line: Degradation in simulated intestinal fluid (SIF), size exclusion chromatography RRT. It counts as in vitro ADME. Particulars: for RRT (relative retention time) in SIF: 37.5°C, GA about 1.5 mg/ml, GT 5 mg/ml. On the procedure:
Simulated intestinal fluid (SIF) with desired proteolytic activity was prepared based on USP procedure. 6.8 g of monobasic potassium phosphate was dissolved in 250 mL of water by mixing. 77 mL of 0.2 N sodium hydroxide and 500 mL of water were added. 10.0 g of pancreatin were added, and the solution was mixed. The pH of the resulting solution was adjusted with either 0.2 N sodium hydroxide of 0.2 N hydrochloric acid to a pH of 6.8±0.1. The solution was diluted with water to 1000 mL.
SIF was heated to 37.5±0.5° C. At time zero, Glatiramer acetate (GA) solution and Glatiramer tannate (GT) suspension were each added to separate samples of SIF to attain final concentration of about 1.5 mg/ml and 5 mg/ml respectively. The reactions were performed while continuously stirring. The reactions were sampled at chosen intervals. The reaction was terminated in each sample using concentrated HCl. The retention time (RT) of the glatiramer peak of each sample was analyzed using size exclusion chromatography. A higher glatiramer RT is indicative of greater degradation. The Relative Retention time (RRT) was calculated for each sample as (RT of Glatiramer/RT of acetone) and the results were shown in Table 3.

Data set [2] can be described thus: Degradation in simulated gastric fluid (SGF), size exclusion chromatography RRT. It counts as in vitro ADME. The conditions noted are these: for RRT (relative retention time) in SGF: 37.5°C, GA about 1.5 mg/ml, GT 5 mg/ml. The method, then: Simulated gastric fluid (SGF) with desired proteolytic activity was prepared based on USP procedure. 2.0 g of sodium chloride and 3.2 g of purified pepsin derived from porcine stomach mucosa, with an activity of 800 to 2500 units per mg of protein, was dissolved in 7.0 mL of hydrochloric acid and sufficient water to make 1000 mL. This test solution has a pH of about 1.2.
SGF was heated to 37.5±0.5° C. At time zero, Glatiramer acetate (GA) solution and Glatiramer tannate (GT) suspension were each added to separate samples of SGF to attain final concentration of about 1.5 mg/ml and 5 mg/ml respectively (molar equivalent amounts of glatiramer). The reactions were sampled at pre-determined intervals. When removing samples, the reaction was terminated in each sample using NaOH solution. The retention time (RT) of the glatiramer peak of each sample was analyzed using size exclusion chromatography. A higher glatiramer RT indicates reduction in molecular weight, which is indicative of degradation. The Relative Retention time (RRT) was calculated for each sample as (RT of Glatiramer/RT of acetone) and the results were shown in Table 2.

Setting [3] is: time 0 min, higher RRT = degradation.

Entries after “also recorded” stand apart in the source; their conditions may differ.

Turning to “L-glutamic acid polymer with L-alanine, L-lysine and L-tyrosine, acetate (salt) [GA]”, the “RRT (relative retention time) in SIF” value in data set [1] (setting [3]) is 0.68; in data set [1] (time 2 min), “No peak”; in data set [1] (time 5 min), “No peak”; in data set [1] (time 10 min), “No peak”; in data set [1] (time 20 min) it was “No peak”; in data set [1] (time 30 min), “No peak”. Also, the “degradation in simulated intestinal fluid (in words)” value in data set [1] (up to 30 min) is listed as “rapidly degrades; also recorded: immediately degraded”. For the same substance, the “RRT (relative retention time) in SGF” value in data set [2] (setting [3]) is recorded as 0.69; in data set [2] (time 2 min), 0.75; in data set [2] (time 5 min) it was 0.76; in data set [2] (time 10 min), 0.77; in data set [2] (time 20 min) it was 0.78; in data set [2] (time 30 min), 0.78. Besides, the “degradation in simulated gastric fluid (in words)” value in data set [2] (up to 30 min) is listed as “similar”.
